Assay results taken from US7960427B2, “5-hydroxyindole-3-carboxylate derivatives and uses thereof” (priority 2004, dated 2011).

How the values were obtained:
[1] = test system: influenza A virus, strain A/jifang/90-15; format: cell-based
[2] = test system: Madin-Darby canine kidney (MDCK) cells

How did the SI [1] turn out when NC(=O)c1ncn([C@@H]2O[C@H](CO)[C@@H](O)[C@H]2O)n1 [Ribovirin, reference compound] was run?
The SI was over 29.57.

What about the TC50 [2] of the same compound?
The TC50 was over 1000 µg/mL.
